Experimental data published in publication PMC11865982, “Structure–Activity Relationships and Biological Insights into PSMA-617 and Its Derivatives with Modified Lipophilic Linker Regions” (ACS Omega, 2025).
Values joined by “and” are separate entries in the source; they are usually repeats but may differ in a detail not shown here. Equal entries are not always repeated. Where two headings read alike, the source gives them in different places.

System: PC3-PIP and PC3-flu tumor-bearing BALB/c nu/nu mice
Settings: for biodistribution blood / biodistribution bone / biodistribution brain / biodistribution heart / biodistribution intestine / biodistribution kidney / biodistribution liver / biodistribution lung / biodistribution muscle / biodistribution spleen / biodistribution tail / biodistribution tumor PC3-PIP / biodistribution tumor PC3-flu: i.v., n = 3; for PC3-PIP-to-PC3-flu ratio / PC3-PIP-to-blood ratio / PC3-PIP-to-kidney ratio / PC3-PIP-to-muscle ratio / PC3-PIP-to-spleen ratio: averages (n = 3); for PC3 flu tumor retention: at all time-points (1, 2, 24 h p.i.); for tumor-to-kidney ratio: time not stated, before the 24 h p.i. value

Structure (SMILES): O=C([O-])CN1CCN(CC(=O)[O-])CCN(CC(=O)NC[C@H]2CC[C@H](C(=O)N[C@@H](C/C=C/c3ccccc3)C(=O)NCCCC[C@H](NC(=O)N[C@@H](CCC(=O)O)C(=O)O)C(=O)O)CC2)CCN(CC(=O)[O-])CC1.[177Lu+3] [[^177Lu]Lu-P17]
- biodistribution blood (1 h p.i.): 0.18 ± 0.10 % IA/g
- biodistribution bone (1 h p.i.): 0.16 ± 0.03 % IA/g
- biodistribution brain (1 h p.i.): 0.02 ± 0.01 % IA/g
- biodistribution heart (1 h p.i.): 0.18 ± 0.02 % IA/g
- biodistribution intestine (1 h p.i.): 0.09 ± 0.01 % IA/g
- biodistribution kidney (1 h p.i.): ~110 % IA/g and 111 ± 33 % IA/g
- biodistribution liver (1 h p.i.): 0.15 ± 0.03 % IA/g
- biodistribution lung (1 h p.i.): 0.51 ± 0.06 % IA/g
- biodistribution muscle (1 h p.i.): 0.10 ± 0.03 % IA/g
- biodistribution spleen (1 h p.i.): 2–3 % IA/g and 2.3 ± 0.4 % IA/g
- biodistribution tail (1 h p.i.): 0.66 ± 0.09 % IA/g
- biodistribution tumor PC3-PIP (1 h p.i.): 14.1 ± 0.6 % IA/g
- biodistribution tumor PC3-flu (1 h p.i.): 0.50 ± 0.38 % IA/g
- PC3-PIP-to-PC3-flu ratio (1 h p.i.): 28.1
- PC3-PIP-to-blood ratio (1 h p.i.): 78.3
- PC3-PIP-to-kidney ratio (1 h p.i.): 0.13
- PC3-PIP-to-muscle ratio (1 h p.i.): 139
- PC3-PIP-to-spleen ratio (1 h p.i.): 6.3
- biodistribution blood (2 h p.i.): 0.09 ± 0.01 % IA/g
- biodistribution bone (2 h p.i.): 0.18 ± 0.01 % IA/g
- biodistribution brain (2 h p.i.): 0.02 ± 0.01 % IA/g
- biodistribution heart (2 h p.i.): 0.07 ± 0.02 % IA/g
- biodistribution intestine (2 h p.i.): 0.06 ± 0.02 % IA/g
- biodistribution kidney (2 h p.i.): 50.3 ± 10.5 % IA/g
- biodistribution liver (2 h p.i.): 0.12 ± 0.03 % IA/g
- biodistribution lung (2 h p.i.): 0.53 ± 0.03 % IA/g
- biodistribution muscle (2 h p.i.): 0.05 ± 0.10 % IA/g
- biodistribution spleen (2 h p.i.): 0.81 ± 0.12 % IA/g
- biodistribution tail (2 h p.i.): 0.35 ± 0.05 % IA/g
- biodistribution tumor PC3-PIP (2 h p.i.): 14.1 ± 4.5 % IA/g
- biodistribution tumor PC3-flu (2 h p.i.): 0.17 ± 0.16 % IA/g
- PC3-PIP-to-PC3-flu ratio (2 h p.i.): 81.8
- PC3-PIP-to-blood ratio (2 h p.i.): 161
- PC3-PIP-to-kidney ratio (2 h p.i.): 0.28
- PC3-PIP-to-muscle ratio (2 h p.i.): 268
- PC3-PIP-to-spleen ratio (2 h p.i.): 17.5
- biodistribution blood (24 h p.i.): 0.02 ± 0.02 % IA/g
- biodistribution bone (24 h p.i.): 0.79 ± 0.26 % IA/g
- biodistribution brain (24 h p.i.): 0.01 ± 0.01 % IA/g
- biodistribution heart (24 h p.i.): 0.03 ± 0.01 % IA/g
- biodistribution intestine (24 h p.i.): 0.05 ± 0.03 % IA/g
- biodistribution kidney (24 h p.i.): ~1 % IA/g and 1.1 ± 0.1 % IA/g
- biodistribution liver (24 h p.i.): 0.25 ± 0.01 % IA/g
- biodistribution lung (24 h p.i.): 0.09 ± 0.06 % IA/g
- biodistribution muscle (24 h p.i.): 0.01 ± 0.01 % IA/g
- biodistribution spleen (24 h p.i.): 0.12 ± 0.01 % IA/g
- biodistribution tail (24 h p.i.): 0.28 ± 0.03 % IA/g
- biodistribution tumor PC3-PIP (24 h p.i.): 10.5 ± 0.3 % IA/g
- biodistribution tumor PC3-flu (24 h p.i.): 0.16 ± 0.02 % IA/g
- PC3-PIP-to-PC3-flu ratio (24 h p.i.): 67.5
- PC3-PIP-to-blood ratio (24 h p.i.): 619
- PC3-PIP-to-kidney ratio (24 h p.i.): 9.8
- PC3-PIP-to-muscle ratio (24 h p.i.): 1620
- PC3-PIP-to-spleen ratio (24 h p.i.): 87.9
- PC3 flu tumor retention: under 1.7 % IA/g
- tumor-to-kidney ratio: below 1

Structure (SMILES): O=C([O-])CN1CCN(CC(=O)[O-])CCN(CC(=O)NCc2ccc(C(=O)N[C@@H](C/C=C/c3ccccc3)C(=O)NCCCC[C@H](NC(=O)N[C@@H](CCC(=O)O)C(=O)O)C(=O)O)cc2)CCN(CC(=O)[O-])CC1.[177Lu+3] [[^177Lu]Lu-P18]
- biodistribution blood (1 h p.i.): 0.19 ± 0.06 % IA/g
- biodistribution bone (1 h p.i.): 0.28 ± 0.01 % IA/g
- biodistribution brain (1 h p.i.): 0.03 ± 0.01 % IA/g
- biodistribution heart (1 h p.i.): 0.36 ± 0.08 % IA/g
- biodistribution intestine (1 h p.i.): 0.20 ± 0.08 % IA/g
- biodistribution kidney (1 h p.i.): ~150 % IA/g and 147 ± 5 % IA/g
- biodistribution liver (1 h p.i.): 0.25 ± 0.01 % IA/g
- biodistribution lung (1 h p.i.): 1.3 ± 0.2 % IA/g
- biodistribution muscle (1 h p.i.): 0.19 ± 0.05 % IA/g
- biodistribution spleen (1 h p.i.): ~14 % IA/g and 14.6 ± 3.5 % IA/g
- biodistribution tail (1 h p.i.): 0.79 ± 0.08 % IA/g
- biodistribution tumor PC3-PIP (1 h p.i.): 19.8 ± 2.3 % IA/g
- biodistribution tumor PC3-flu (1 h p.i.): 0.62 ± 0.46 % IA/g
- PC3-PIP-to-PC3-flu ratio (1 h p.i.): 31.9
- PC3-PIP-to-blood ratio (1 h p.i.): 106
- PC3-PIP-to-kidney ratio (1 h p.i.): 0.14
- PC3-PIP-to-muscle ratio (1 h p.i.): 103
- PC3-PIP-to-spleen ratio (1 h p.i.): 1.4
- biodistribution blood (2 h p.i.): 0.06 ± 0.01 % IA/g
- biodistribution bone (2 h p.i.): 0.63 ± 0.78 % IA/g
- biodistribution brain (2 h p.i.): 0.02 ± 0.01 % IA/g
- biodistribution heart (2 h p.i.): 0.21 ± 0.02 % IA/g
- biodistribution intestine (2 h p.i.): 0.10 ± 0.01 % IA/g
- biodistribution kidney (2 h p.i.): 135 ± 11 % IA/g
- biodistribution liver (2 h p.i.): 0.16 ± 0.02 % IA/g
- biodistribution lung (2 h p.i.): 0.68 ± 0.12 % IA/g
- biodistribution muscle (2 h p.i.): 0.14 ± 0.02 % IA/g
- biodistribution spleen (2 h p.i.): 8.5 ± 1.0 % IA/g
- biodistribution tail (2 h p.i.): 0.77 ± 0.32 % IA/g
- biodistribution tumor PC3-PIP (2 h p.i.): 17.5 ± 2.3 % IA/g
- biodistribution tumor PC3-flu (2 h p.i.): 0.49 ± 0.51 % IA/g
- PC3-PIP-to-PC3-flu ratio (2 h p.i.): 36.1
- PC3-PIP-to-blood ratio (2 h p.i.): 276
- PC3-PIP-to-kidney ratio (2 h p.i.): 0.13
- PC3-PIP-to-muscle ratio (2 h p.i.): 124
- PC3-PIP-to-spleen ratio (2 h p.i.): 2.1
- biodistribution blood (24 h p.i.): 0.01 ± 0.01 % IA/g
- biodistribution bone (24 h p.i.): 0.10 ± 0.08 % IA/g
- biodistribution brain (24 h p.i.): 0.01 ± 0.01 % IA/g
- biodistribution heart (24 h p.i.): 0.03 ± 0.01 % IA/g
- biodistribution intestine (24 h p.i.): 0.02 ± 0.01 % IA/g
- biodistribution kidney (24 h p.i.): ~25 % IA/g and 25.4 ± 10.3 % IA/g
- biodistribution liver (24 h p.i.): 0.10 ± 0.02 % IA/g
- biodistribution lung (24 h p.i.): 0.13 ± 0.01 % IA/g
- biodistribution muscle (24 h p.i.): 0.02 ± 0.01 % IA/g
- biodistribution spleen (24 h p.i.): 0.89 ± 0.39 % IA/g
- biodistribution tail (24 h p.i.): 0.08 ± 0.01 % IA/g
- biodistribution tumor PC3-PIP (24 h p.i.): 17.7 ± 3.2 % IA/g
- biodistribution tumor PC3-flu (24 h p.i.): 1.6 ± 0.3 % IA/g
- PC3-PIP-to-PC3-flu ratio (24 h p.i.): 10.8
- PC3-PIP-to-blood ratio (24 h p.i.): 2351
- PC3-PIP-to-kidney ratio (24 h p.i.): below 1
- PC3-PIP-to-muscle ratio (24 h p.i.): 739
- PC3-PIP-to-spleen ratio (24 h p.i.): 19.9
- PC3-PIP-to-kidney ratio (24 h p.i., listed as [177Lu]Lu-P18): 0.7
- PC3 flu tumor retention: under 1.7 % IA/g
- tumor-to-kidney ratio: below 1

Structure (SMILES): O=C([O-])CN1CCN(CC(=O)[O-])CCN(CC(=O)NC[C@H]2CC[C@H](C(=O)N[C@@H](Cc3ccc4ccccc4c3)C(=O)NCCCC[C@H](NC(=O)N[C@@H](CCC(=O)O)C(=O)O)C(=O)O)CC2)CCN(CC(=O)[O-])CC1.[177Lu+3] [[^177Lu]Lu-PSMA-617, reference compound]
- biodistribution blood (1 h p.i.): 0.19 ± 0.01 % IA/g
- biodistribution brain (1 h p.i.): 0.03 ± 0.02 % IA/g
- biodistribution intestine (1 h p.i.): 0.40 ± 0.34 % IA/g
- biodistribution kidney (1 h p.i.): ~110 % IA/g and 109±52 % IA/g
- biodistribution lung (1 h p.i.): 0.43 ± 0.19 % IA/g
- biodistribution spleen (1 h p.i.): 2–3 % IA/g and 2.8 ± 2.2 % IA/g
- biodistribution tumor PC3-PIP (1 h p.i.): 24.5 ± 13.0 % IA/g
- biodistribution tumor PC3-flu (1 h p.i.): 0.17 ± 0.13 % IA/g
- PC3-PIP-to-PC3-flu ratio (1 h p.i.): 144
- PC3-PIP-to-blood ratio (1 h p.i.): 130
- PC3-PIP-to-kidney ratio (1 h p.i.): 0.22
- PC3-PIP-to-muscle ratio (1 h p.i.): 168
- PC3-PIP-to-spleen ratio (1 h p.i.): 8.9
- biodistribution blood (2 h p.i.): 0.03 ± 0.02 % IA/g
- biodistribution bone (2 h p.i.): 1.6 ± 1.5 % IA/g
- biodistribution brain (2 h p.i.): 0.01 ± 0.01 % IA/g
- biodistribution heart (2 h p.i.): 0.02 ± 0.01 % IA/g
- biodistribution intestine (2 h p.i.): 0.04 ± 0.01 % IA/g
- biodistribution kidney (2 h p.i.): 12.9±10.2 % IA/g
- biodistribution liver (2 h p.i.): 0.05 ± 0.02 % IA/g
- biodistribution lung (2 h p.i.): 0.08 ± 0.03 % IA/g
- biodistribution muscle (2 h p.i.): 0.02 ± 0.01 % IA/g
- biodistribution spleen (2 h p.i.): 0.38 ± 0.17 % IA/g
- biodistribution tail (2 h p.i.): 0.05 ± 0.10 % IA/g
- biodistribution tumor PC3-PIP (2 h p.i.): 20.4 ± 5.1 % IA/g
- biodistribution tumor PC3-flu (2 h p.i.): 0.05 ± 0.01 % IA/g
- PC3-PIP-to-PC3-flu ratio (2 h p.i.): 447
- PC3-PIP-to-blood ratio (2 h p.i.): 620
- PC3-PIP-to-kidney ratio (2 h p.i.): 1.6
- PC3-PIP-to-muscle ratio (2 h p.i.): 971
- PC3-PIP-to-spleen ratio (2 h p.i.): 54.2
- biodistribution blood (24 h p.i.): 0.02 ± 0.03 % IA/g
- biodistribution bone (24 h p.i.): 0.04 ± 0.02 % IA/g
- biodistribution brain (24 h p.i.): 0.01 ± 0.01 % IA/g
- biodistribution heart (24 h p.i.): 0.01 ± 0.01 % IA/g
- biodistribution intestine (24 h p.i.): 0.01 ± 0.01 % IA/g
- biodistribution kidney (24 h p.i.): ~1 % IA/g and 0.64 ± 0.18 % IA/g
- biodistribution muscle (24 h p.i.): 0.01 ± 0.01 % IA/g
- biodistribution tail (24 h p.i.): 0.03 ± 0.01 % IA/g
- biodistribution tumor PC3-PIP (24 h p.i.): 22.3 ± 3.5 % IA/g
- biodistribution tumor PC3-flu (24 h p.i.): 0.51 ± 0.18 % IA/g
- PC3-PIP-to-PC3-flu ratio (24 h p.i.): 43.6
- PC3-PIP-to-blood ratio (24 h p.i.): 1306
- PC3-PIP-to-kidney ratio (24 h p.i.): 35.1
- PC3-PIP-to-muscle ratio (24 h p.i.): 5846
- PC3-PIP-to-spleen ratio (24 h p.i.): 201
